Assay results reported in PubChem BioAssay (NCI).
The entries are a selection whose mix differs from that of the whole data set.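 Note: values are percent growth. 100 is the growth of untreated cells, values between 100 and 0 indicate rising inhibition; between -100 and 0 indicates cell death.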 The source made the active and inactive calls. Rule for the calls: active = growth percent below 10; inactive = the rest.

Legend:
Assay in all cases: NCI-60 one-dose screen, 48 h (100 = growth as untreated, 0 = no growth, -100 = all killed)
Settings in all cases: 10 µM
SK-MEL-2 melanoma = system: SK-MEL-2 melanoma
SN12C renal = system: SN12C renal
UO-31 renal = system: UO-31 renal
TK-10 renal = system: TK-10 renal
ACHN renal = system: ACHN renal
CAKI-1 renal = system: CAKI-1 renal
A498 renal = system: A498 renal
HL-60(TB) leukemia = system: HL-60(TB) leukemia
MOLT-4 leukemia = system: MOLT-4 leukemia
SR leukemia = system: SR leukemia
RPMI-8226 leukemia = system: RPMI-8226 leukemia
OVCAR-8 ovarian = system: OVCAR-8 ovarian
OVCAR-5 ovarian = system: OVCAR-5 ovarian
OVCAR-4 ovarian = system: OVCAR-4 ovarian
SK-OV-3 ovarian = system: SK-OV-3 ovarian
IGROV1 ovarian = system: IGROV1 ovarian
OVCAR-3 ovarian = system: OVCAR-3 ovarian
CCRF-CEM leukemia = system: CCRF-CEM leukemia
HS 578T breast = system: HS 578T breast
EKVX NSCLC = system: EKVX NSCLC

Measured: growth

O=[N+]([O-])c1cc([N+](=O)[O-])c(O)c([N+](=O)[O-])c1.c1ccnnc1
inactive: SK-MEL-2 melanoma 107% | SN12C renal 98.3% | UO-31 renal 94% | TK-10 renal 120% | ACHN renal 92.3% | CAKI-1 renal 100% | A498 renal 106% | HL-60(TB) leukemia 102% | MOLT-4 leukemia 97.5% | SR leukemia 99.6% | RPMI-8226 leukemia 104% | OVCAR-8 ovarian 100% | OVCAR-5 ovarian 94.2% | OVCAR-4 ovarian 101% | SK-OV-3 ovarian 112% | IGROV1 ovarian 98.9% | OVCAR-3 ovarian 116%

O=[N+]([O-])N(CCOC(N(F)F)(N(F)F)N(F)F)CC([N+](=O)[O-])([N+](=O)[O-])[N+](=O)[O-]
inactive: SN12C renal 105% | UO-31 renal 78.6% | TK-10 renal 101% | ACHN renal 101% | CAKI-1 renal 92.7% | A498 renal 108% | HL-60(TB) leukemia 101% | CCRF-CEM leukemia 99.8% | MOLT-4 leukemia 106% | SR leukemia 96.3% | RPMI-8226 leukemia 108% | OVCAR-8 ovarian 103% | OVCAR-5 ovarian 104% | OVCAR-4 ovarian 113% | SK-OV-3 ovarian 96.4% | IGROV1 ovarian 106% | OVCAR-3 ovarian 118% | HS 578T breast 111%

CCOP(=O)(CC)OCC
inactive: SK-MEL-2 melanoma 106% | SN12C renal 99% | UO-31 renal 90.7% | TK-10 renal 98.6% | ACHN renal 106% | CAKI-1 renal 91.6% | A498 renal 39.5% | HL-60(TB) leukemia 99.9% | CCRF-CEM leukemia 104% | MOLT-4 leukemia 96% | SR leukemia 101% | RPMI-8226 leukemia 101% | OVCAR-8 ovarian 98.1% | OVCAR-5 ovarian 97.8% | OVCAR-4 ovarian 103% | SK-OV-3 ovarian 113% | IGROV1 ovarian 113% | OVCAR-3 ovarian 125% | HS 578T breast 95.4%

NN/C(N)=N/[N+](=O)[O-]
inactive: EKVX NSCLC 108% | SN12C renal 105% | UO-31 renal 86.8% | TK-10 renal 106% | ACHN renal 107% | CAKI-1 renal 103% | A498 renal 126% | HL-60(TB) leukemia 94.2% | MOLT-4 leukemia 96.1% | SR leukemia 97.3% | RPMI-8226 leukemia 115% | OVCAR-8 ovarian 108% | OVCAR-5 ovarian 102% | OVCAR-4 ovarian 131% | SK-OV-3 ovarian 105% | IGROV1 ovarian 103% | OVCAR-3 ovarian 121%

CN(C)Nc1c([N+](=O)[O-])cc([N+](=O)[O-])cc1[N+](=O)[O-]
inactive: SK-MEL-2 melanoma 85.4% | SN12C renal 96.1% | UO-31 renal 91.3% | TK-10 renal 127% | ACHN renal 107% | CAKI-1 renal 113% | A498 renal 112% | HL-60(TB) leukemia 96.7% | MOLT-4 leukemia 98.3% | SR leukemia 93.4% | RPMI-8226 leukemia 98.1% | OVCAR-8 ovarian 104% | OVCAR-5 ovarian 112% | OVCAR-4 ovarian 99.5% | SK-OV-3 ovarian 101% | IGROV1 ovarian 103% | OVCAR-3 ovarian 113% | HS 578T breast 109%

CN1CCN(CCOC(=O)C(O)(c2ccccc2)c2ccccc2)CC1
inactive: SK-MEL-2 melanoma 99.7% | EKVX NSCLC 100% | UO-31 renal 86.3% | TK-10 renal 102% | ACHN renal 101% | CAKI-1 renal 98.8% | A498 renal 108% | HL-60(TB) leukemia 89% | CCRF-CEM leukemia 119% | MOLT-4 leukemia 114% | SR leukemia 127% | RPMI-8226 leukemia 114% | OVCAR-8 ovarian 110% | OVCAR-5 ovarian 93% | OVCAR-4 ovarian 99% | SK-OV-3 ovarian 108% | OVCAR-3 ovarian 98.1% | HS 578T breast 97.6%

CNc1ccccc1.O=[N+]([O-])c1cc([N+](=O)[O-])c(O)c([N+](=O)[O-])c1
inactive: SK-MEL-2 melanoma 108% | SN12C renal 90.1% | UO-31 renal 93.7% | TK-10 renal 111% | ACHN renal 102% | A498 renal 74% | HL-60(TB) leukemia 96.3% | CCRF-CEM leukemia 98.3% | MOLT-4 leukemia 99.5% | SR leukemia 95% | RPMI-8226 leukemia 98.5% | OVCAR-8 ovarian 106% | OVCAR-5 ovarian 108% | OVCAR-4 ovarian 91.5% | SK-OV-3 ovarian 107% | IGROV1 ovarian 116% | OVCAR-3 ovarian 121% | HS 578T breast 115%

COC(=O)C(O)(c1ccccc1)c1ccccc1
inactive: SK-MEL-2 melanoma 111% | SN12C renal 78.6% | UO-31 renal 90.6% | TK-10 renal 108% | ACHN renal 103% | CAKI-1 renal 102% | A498 renal 115% | HL-60(TB) leukemia 121% | CCRF-CEM leukemia 103% | MOLT-4 leukemia 120% | SR leukemia 103% | RPMI-8226 leukemia 106% | OVCAR-8 ovarian 102% | OVCAR-5 ovarian 101% | OVCAR-4 ovarian 113% | SK-OV-3 ovarian 94.1% | OVCAR-3 ovarian 123% | HS 578T breast 103%

CC[N+]([O-])(CC)Cc1ccccc1.O=[N+]([O-])c1cc([N+](=O)[O-])c(S(=O)(=O)O)c([N+](=O)[O-])c1
inactive: SK-MEL-2 melanoma 116% | SN12C renal 94.8% | UO-31 renal 97.2% | TK-10 renal 118% | ACHN renal 96.9% | CAKI-1 renal 90.7% | A498 renal 93.3% | HL-60(TB) leukemia 98.9% | CCRF-CEM leukemia 92.1% | MOLT-4 leukemia 101% | SR leukemia 94.7% | RPMI-8226 leukemia 97.3% | OVCAR-8 ovarian 99.8% | OVCAR-5 ovarian 98.5% | OVCAR-4 ovarian 98.9% | SK-OV-3 ovarian 112% | IGROV1 ovarian 108% | OVCAR-3 ovarian 102% | HS 578T breast 96.8%

CN(Cc1cccnc1)C(=O)COc1ccc(Cl)c(Cl)c1.O=[N+]([O-])c1cc([N+](=O)[O-])c(O)c([N+](=O)[O-])c1
inactive: SK-MEL-2 melanoma 108% | SN12C renal 96.6% | UO-31 renal 78.7% | TK-10 renal 124% | ACHN renal 96.1% | CAKI-1 renal 94.7% | A498 renal 108% | HL-60(TB) leukemia 119% | CCRF-CEM leukemia 102% | MOLT-4 leukemia 105% | SR leukemia 91.5% | RPMI-8226 leukemia 90.4% | OVCAR-8 ovarian 102% | OVCAR-5 ovarian 102% | OVCAR-4 ovarian 97% | SK-OV-3 ovarian 108% | IGROV1 ovarian 109% | OVCAR-3 ovarian 101% | HS 578T breast 116%

O=[N+]([O-])c1cccc([N+](=O)[O-])c1O
inactive: EKVX NSCLC 112% | SN12C renal 109% | UO-31 renal 91.2% | TK-10 renal 82.3% | ACHN renal 107% | CAKI-1 renal 108% | A498 renal 108% | HL-60(TB) leukemia 96.1% | CCRF-CEM leukemia 122% | MOLT-4 leukemia 105% | SR leukemia 105% | RPMI-8226 leukemia 134% | OVCAR-8 ovarian 105% | OVCAR-5 ovarian 106% | OVCAR-4 ovarian 112% | SK-OV-3 ovarian 106% | IGROV1 ovarian 115% | OVCAR-3 ovarian 114% | HS 578T breast 102%

N=C(N)N(N)[N+](=O)[O-]
inactive: EKVX NSCLC 102% | SN12C renal 96.4% | TK-10 renal 77.5% | ACHN renal 105% | CAKI-1 renal 93.6% | A498 renal 91.7% | HL-60(TB) leukemia 93% | CCRF-CEM leukemia 85.1% | MOLT-4 leukemia 95.3% | SR leukemia 91.2% | RPMI-8226 leukemia 107% | OVCAR-8 ovarian 106% | OVCAR-5 ovarian 101% | OVCAR-4 ovarian 109% | SK-OV-3 ovarian 105% | OVCAR-3 ovarian 105% | HS 578T breast 110%

CN(CCCl)CCCCCCCl
inactive: SK-MEL-2 melanoma 76.1% | SN12C renal 94.5% | UO-31 renal 80.9% | TK-10 renal 98.8% | ACHN renal 88.3% | CAKI-1 renal 72.3% | A498 renal 95.5% | HL-60(TB) leukemia 95.2% | MOLT-4 leukemia 76% | SR leukemia 76.2% | RPMI-8226 leukemia 96.4% | OVCAR-8 ovarian 91.2% | OVCAR-5 ovarian 102% | OVCAR-4 ovarian 110% | SK-OV-3 ovarian 101% | IGROV1 ovarian 88.8% | OVCAR-3 ovarian 112%

CCCCCCCOP(=O)(CC)OCCCCCCC
inactive: SK-MEL-2 melanoma 99.4% | SN12C renal 96% | UO-31 renal 77.8% | TK-10 renal 104% | ACHN renal 105% | CAKI-1 renal 92.6% | A498 renal 90.9% | HL-60(TB) leukemia 106% | CCRF-CEM leukemia 101% | MOLT-4 leukemia 105% | RPMI-8226 leukemia 103% | OVCAR-8 ovarian 93.2% | OVCAR-5 ovarian 99.8% | OVCAR-4 ovarian 91.4% | SK-OV-3 ovarian 95.3% | IGROV1 ovarian 97.4% | OVCAR-3 ovarian 111% | HS 578T breast 103%

CP(=O)(OCCCl)N(CCCl)CCCl (centres undefined)
inactive: SK-MEL-2 melanoma 80.8% | SN12C renal 107% | UO-31 renal 91.1% | TK-10 renal 98% | ACHN renal 95.8% | CAKI-1 renal 99.8% | A498 renal 107% | HL-60(TB) leukemia 98.7% | MOLT-4 leukemia 83.1% | SR leukemia 91.7% | RPMI-8226 leukemia 97.4% | OVCAR-8 ovarian 103% | OVCAR-5 ovarian 93.9% | OVCAR-4 ovarian 104% | SK-OV-3 ovarian 107% | IGROV1 ovarian 106% | OVCAR-3 ovarian 111%
